Source: paper PMC13005129 (Biochemistry, 2025)

By UniProt entry, the sequences of proteins in these tests, tags left out. Where a name states a change or a piece, a line headed by the entry shows the natural chain unless it says otherwise.
UniProt P08483: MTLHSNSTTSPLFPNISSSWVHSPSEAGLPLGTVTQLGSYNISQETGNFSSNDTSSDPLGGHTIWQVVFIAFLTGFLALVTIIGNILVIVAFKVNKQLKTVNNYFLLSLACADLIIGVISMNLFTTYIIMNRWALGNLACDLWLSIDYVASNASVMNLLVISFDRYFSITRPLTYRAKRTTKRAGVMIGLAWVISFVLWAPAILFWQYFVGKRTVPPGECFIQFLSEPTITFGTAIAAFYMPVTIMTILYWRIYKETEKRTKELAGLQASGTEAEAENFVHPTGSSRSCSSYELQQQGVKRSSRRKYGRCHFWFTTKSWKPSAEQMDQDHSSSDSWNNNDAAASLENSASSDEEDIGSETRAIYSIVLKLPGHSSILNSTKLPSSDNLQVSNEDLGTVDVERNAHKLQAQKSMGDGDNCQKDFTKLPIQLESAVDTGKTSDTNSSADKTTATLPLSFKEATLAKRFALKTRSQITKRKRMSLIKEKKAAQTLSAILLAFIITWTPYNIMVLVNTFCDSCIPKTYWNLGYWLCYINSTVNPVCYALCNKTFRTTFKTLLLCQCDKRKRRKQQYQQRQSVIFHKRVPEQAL

Legend:
[1] = target: M3R-Gq/βarr2 (Rattus norvegicus, UniProt P08483, C542A/C546S/C560S/C562S/DEL274-469); settings: COS-7 cells expressing M3R-Gq; BRET
[2] = target: M3R-Gq/βarr1 (Rattus norvegicus, UniProt P08483, C542A/C546S/C560S/C562S/DEL274-469); settings: COS-7 cells expressing M3R-Gq; BRET

C[N+](C)(C)CCOC(N)=O [carbachol, carbamoylcholine chloride]
recruitment of βarr2 [1]: failed to recruit either of the two β-arrestins
recruitment of βarr1 [2]: failed to recruit either of the two β-arrestins
